Drawing on patent US7119105B2, “Methods for treating neurodegenerative disorders using aspartyl protease inhibitors” (The Regents of the University of California, priority 1997, dated 2006), this text covers Ki and IC50 for four molecules.

The chains behind the UniProt entries cited, without tags or fusion partners. Residues count along the entry.
UniProt P07339, 65-412 limits assumed: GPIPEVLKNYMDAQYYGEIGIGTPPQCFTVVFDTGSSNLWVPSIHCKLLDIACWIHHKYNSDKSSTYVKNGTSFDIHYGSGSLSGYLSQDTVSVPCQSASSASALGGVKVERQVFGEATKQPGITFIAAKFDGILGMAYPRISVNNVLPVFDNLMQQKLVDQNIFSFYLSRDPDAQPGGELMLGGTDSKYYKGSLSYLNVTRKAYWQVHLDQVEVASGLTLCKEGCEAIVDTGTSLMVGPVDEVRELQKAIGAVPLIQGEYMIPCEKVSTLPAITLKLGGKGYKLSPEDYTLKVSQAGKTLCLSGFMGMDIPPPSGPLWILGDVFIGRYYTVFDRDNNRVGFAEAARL

The target of the assay is cathepsin D (Homo sapiens, UniProt P07339). Description: Cathepsin D cuvette assay for IC50 and inhibition constants (Ki). The settings on record: for Ki: Table IV, substrate 2.5 μM, cathepsin D 10 nM, Ki ≈ IC50 − Et/2. It is filed as biochemical. From the text:
Compounds capable of inhibiting cathepsin D can readily be identified using the assays described herein which measure a change in the hydrolysis of a peptide substrate. More particularly, a fluorometric high through-put assay for activity toward human liver cathepsin D (Calbiochem) can be used to screen the compounds of the present invention for their ability to inhibit cathepsin D. This assay was previously described by G. A. Kraft, et al., Methods Enzymol. 241, 70-86 (1994), the teachings of which are incorporated herein by reference. […] T. Baldwin, et al., Proc. Natl. Acad. […] Generally, the reactants are mixed, the reaction is allowed to proceed for a specific period of time and the fluorescence of the reaction products is monitored to determine the extent to which the peptide substrate has been cleaved. […] 241, 70-86 (1994). As such, following the methods of the present invention, compounds can be readily synthesized and screened to identify compounds that inhibit cathepsin D. [table]

A word on the Ki: it is the equilibrium dissociation constant of an inhibitor or competing ligand from its target. `O=C(COc1cc(Cl)c(Cl)cc1Cl)N[C@@H](Cc1ccccc1)[C@H](O)CN(CCc1ccc2c(c1)OCO2)C(=O)CCN1C(=O)c2ccccc2C1=O` registered an inhibitory constant (Ki) above 5000 nM.

In general, IC50 refers to the concentration that inhibits the measured activity by half. The low end stands for greater potency in that assay, the high end for weaker potency in that assay. `O=C(COc1ccc(Cl)c(Cl)c1)N[C@@H](Cc1ccccc1)[C@H](O)CN(CCc1ccc2c(c1)OCO2)C(=O)CCN1C(=O)c2ccccc2C1=O`: where the note is “Table V second generation, conditions as Table IV”, the IC50 is above 5000 nM.

Take `COc1cccc(CCN(C[C@H](O)[C@H](Cc2ccccc2)NC(=O)CN2C(=O)CSC2=S)C(=O)NC2CCCCC2)c1`: the Ki is 356 nM.

Regarding `CCCCCCC(=O)N(CCc1cccc(OC)c1)C[C@H](O)[C@H](Cc1ccccc1)NC(=O)CN1C(=O)CSC1=S`, the Ki turned out to be 595 nM.
